Measured values reported in PubChem BioAssay AID540329 (Sanford-Burnham Center for Chemical Genomics, 2011).
This is a selection; strong and weak results do not stand in their true shares. Activity calls are given as the source filed them.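 Rule for the calls: active = substances whose mean melting-temperature shift, as a percentage of the reference inhibitor's shift, reaches about 5.3% (limit read from the data); inactive = the rest.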

The chains behind the UniProt entries cited, without tags or fusion partners. Residues count along the entry.
UniProt Q9GZU7, 76-261 limits assumed: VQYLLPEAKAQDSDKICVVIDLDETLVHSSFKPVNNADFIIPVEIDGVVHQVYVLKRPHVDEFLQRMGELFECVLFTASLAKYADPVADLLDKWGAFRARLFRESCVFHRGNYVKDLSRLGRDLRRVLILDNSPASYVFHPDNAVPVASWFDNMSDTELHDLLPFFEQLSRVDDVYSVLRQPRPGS

These molecules were tested against Carboxy-terminal domain RNA polymerase II polypeptide A small phosphatase 1 (Homo sapiens) (UniProt Q9GZU7) (assay: Scp-1 binding by thermal shift, confirmation, orthogonal assay for Scp-1 inhibitor project, biophysical, differential scanning fluorimetry (AID 540329;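 note: 0% = Tm of DMSO wells and 100% = Tm with sodium orthovanadate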)). Conditions: Recombinant SCP1, Sypro Orange thermal shift Tm; at 40 µM; stronger effect = higher value.
Summary of the method: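 material = Scp-1 phosphatase domain | quantity = Scp-1 protein added from a 10 µM stock solution | timing = 20-95 °C thermal ramp | detection = differential scanning fluorimetry | measure = compound-induced change in Scp-1 melting temperature, scaled to vanadate | controls = vanadate reference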
With `O=C1C(O)=C([N+](=O)[O-])C(=O)C(O)=C1[N+](=O)[O-]` the thermal shift relative to vanadate control was inactive: 3.02%.
